Measured values: PubChem BioAssay AID760 (NMMLSC, 2007)
Only a part is listed here, and it is no random draw. Calls of active or inactive are those of the source.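 Rule for the calls: active = GTP binding activity at least 20 points away from 100%, either lowered or raised; inconclusive = signal likely due to the compound's own green fluorescence; inactive = the rest.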

Each compound was assayed against Ras-related protein Rab-2A (Canis lupus familiaris) (UniProt P61105) (assay: modulators of GTP binding to Rab2A wildtype, primary screen, biochemical, dog, bead-based flow cytometry, multiplex (AID 760;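 note: 0% = beads with excess unlabeled GTP and 100% = no-compound control corrected for plate trend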)). Conditions: GST-Rab2 wt beads, Bodipy-GTP binding, at 10 µM.

Compound | GTP binding activity
Cc1cc(C)cc(OP(C)(=O)Nc2ccc(C)cc2C)c1 (stereo not drawn) | inactive: 99%
CCOC(=O)c1ccc(NP(C)(=O)Oc2cc(C)cc(C)c2)cc1 (stereo not drawn) | inactive: 103%
CP(=O)(Nc1cccc(Br)c1)Oc1ccccc1 (stereo not drawn) | inactive: 96%
Cc1cc(C)cc(OP(C)(=O)Nc2ccccn2)c1 (stereo not drawn) | inactive: 102%
Cc1ccc(C)c(NP(C)(=O)Oc2ccccc2)c1 (stereo not drawn) | inactive: 100%
CC1=NCCc2c1[nH]c1ccccc21.O=[N+]([O-])c1cc([N+](=O)[O-])c(O)c([N+](=O)[O-])c1 | inactive: 90%
COc1ccccc1OP(C)(=O)Nc1c(C)cccc1C (stereo not drawn) | inactive: 101%
CN1CCCCC1COC(=O)C1(O)c2ccccc2CCc2ccccc21 (stereo not drawn) | inactive: 100%
CP(=O)(Nc1ccc(SC(F)(F)F)cc1)Oc1ccccc1 (stereo not drawn) | inactive: 98%
CCCOc1ccc(NP(C)(=O)Oc2ccc(Cl)cc2)cc1 (stereo not drawn) | inactive: 94%
O=[N+]([O-])c1cc([N+](=O)[O-])c(-n2nnc3ccccc32)c([N+](=O)[O-])c1 | inactive: 93%
Cc1nc2ccc3ccccc3c2s1.O=[N+]([O-])c1cc([N+](=O)[O-])c(O)c([N+](=O)[O-])c1 | inactive: 97%
Cc1cccc(C)c1OP(C)(=O)Nc1ccc(SC(F)(F)F)cc1 (stereo not drawn) | inactive: 100%
CP(=O)(Oc1ccccc1)OC(c1ccccc1)C(F)(F)F (stereo not drawn) | inactive: 99%
CP(=O)(NC(=O)Nc1ccccc1)Oc1ccccc1 (stereo not drawn) | inactive: 98%
Cc1cc(C)cc(OP(C)(=O)Nc2ccc(SC(F)(F)F)cc2)c1 (stereo not drawn) | inactive: 99%
CCOP(C)(=S)SCC(=O)NC(C)C(=O)O (stereo not drawn) | inactive: 105%
CCOC(=O)c1ccc(NP(C)(=O)Oc2ccc(OC)cc2)cc1 (stereo not drawn) | inactive: 102%
CP(=O)(Nc1ccccn1)Oc1ccc(Cl)cc1 (stereo not drawn) | inactive: 92%
CP(=S)(Nn1cnnc1)Oc1ccccc1 (stereo not drawn) | inactive: 104%
COc1ccccc1OP(C)(=O)Nc1ccccc1 (stereo not drawn) | inactive: 98%
CP(=O)(Nc1ccccc1Br)Oc1ccccc1 (stereo not drawn) | inactive: 102%
CC(C)(C)c1ccc(OP(C)(=O)Nc2ccc(SC(F)(F)F)cc2)cc1 (stereo not drawn) | inactive: 100%

Compound | GTP binding activity
Cc1cccc(C)c1OP(C)(N)=O (stereo not drawn) | inactive: 100%
O=[N+]([O-])c1ccc2c(c1)C=Nc1ccccc1O2 | inactive: 92%
CCOC(=O)c1ccc(NP(C)(=O)Oc2ccccc2)cc1 (stereo not drawn) | inactive: 100%
COc1ccccc1OP(C)(=O)Nc1ccc(C)cc1 (stereo not drawn) | inactive: 97%
Cc1ccc(NP(C)(=O)Oc2ccccc2)c(C)c1 (stereo not drawn) | inactive: 97%
COc1ccccc1OP(C)(=O)Nc1cc(Cl)ccc1C (stereo not drawn) | inactive: 99%
COc1ccc(OP(C)(=O)Nc2cccc(F)c2)cc1 (stereo not drawn) | inactive: 97%
Cc1cc(C)cc(OP(C)(N)=O)c1 (stereo not drawn) | inactive: 98%
CCN(CC)CCCOC(=O)C(O)(c1ccccc1)c1ccccc1 | inactive: 101%
CN(C)CCOC(=O)C(O)(c1ccccc1)C1CCCC1 (stereo not drawn) | inactive: 95%
COc1ccc(OP(C)(=O)Nc2ccccn2)cc1 (stereo not drawn) | inactive: 95%
O=[N+]([O-])c1cc([N+](=O)[O-])c(Nc2ccccn2)c([N+](=O)[O-])c1 | inactive: 99%
Cc1c(NP(C)(=O)Oc2ccc(C(C)C)cc2)c(=O)n(-c2ccccc2)n1C (stereo not drawn) | inactive: 101%
CCc1ccc(OP(C)(=O)O)cc1 | inactive: 100%
CP(=O)(Nc1ccccn1)Oc1ccccc1 (stereo not drawn) | inactive: 103%
COc1ccccc1OP(C)(=O)Nc1ccc(C)cc1C (stereo not drawn) | inactive: 99%
Cc1cc(C)cc(OP(C)(=O)Nc2cccc(C(F)(F)F)c2)c1 (stereo not drawn) | inactive: 96%
COc1ccc(OP(C)(=O)Nc2ccccc2Br)cc1 (stereo not drawn) | inactive: 97%
COc1ccccc1OP(C)(=O)Nc1ccc(C)c(C)c1 (stereo not drawn) | inactive: 97%
Cc1nc2ccc3ccccc3c2o1.O=[N+]([O-])c1cc([N+](=O)[O-])c(O)c([N+](=O)[O-])c1 | inactive: 103%
CP(=O)(OCCOc1ccccc1)OCCOc1ccccc1 | inactive: 95%
CP(=O)(Nc1ccc(Cl)cc1Cl)Oc1ccccc1 (stereo not drawn) | inactive: 97%
CP(=O)(OC12CC3CC(CC(C3)C1)C2)OC12CC3CC(CC(C3)C1)C2 | inactive: 100%

Compound | GTP binding activity
CCOC(=O)c1ccc(NP(C)(=O)Oc2ccc(Cl)cc2)cc1 (stereo not drawn) | inactive: 95%
CCN(CC)CC(O)COC(=O)C(O)(c1ccccc1)C1CCCCC1 (stereo not drawn) | inactive: 104%
COc1ccc(OP(C)(=O)Nc2ccc(Br)cc2)cc1 (stereo not drawn) | inactive: 98%
CP(=O)(Oc1ccccc1)N1CCOC1=O (stereo not drawn) | inactive: 102%
CCc1ccc(OP(C)(=O)Nc2cccnc2)cc1 (stereo not drawn) | inactive: 93%
CP(=O)(Nc1ccc(Cl)cc1)Oc1ccc(F)cc1 (stereo not drawn) | inactive: 102%
CC(C)(C)c1ccc(OP(C)(=O)O)cc1 | inactive: 106%
COc1ccccc1OP(C)(=O)Nc1ccccc1Br (stereo not drawn) | inactive: 95%
CN(C)C(=O)c1c([N+](=O)[O-])cc([N+](=O)[O-])cc1[N+](=O)[O-] | inactive: 102%
CCOP(C)(=S)SCC(=O)NC(C)(CC)C(=O)O (stereo not drawn) | inactive: 99%
CP(=O)(Nc1ccc2c(c1)OCCO2)Oc1ccccc1 (stereo not drawn) | inactive: 105%
Cc1ccccc1NP(C)(=O)Nc1ccccc1C | inactive: 96%
COc1ccc(OP(C)(=O)Nc2cccc(Br)c2)cc1 (stereo not drawn) | inactive: 99%
COc1ccc(NP(C)(=O)Oc2ccccc2OC)cc1 (stereo not drawn) | inactive: 101%
CN(C)CCOC(=O)C(O)(c1ccccc1)C1CCCCC1 (stereo not drawn) | inactive: 98%
O=[N+]([O-])c1cc([N+](=O)[O-])c(NCC2CCS(=O)(=O)C2)c([N+](=O)[O-])c1 (stereo not drawn) | inactive: 95%
COc1ccc(OP(C)(=O)Nc2ccc(SC(F)(F)F)cc2)cc1 (stereo not drawn) | inactive: 96%
CCOC(=O)c1ccc(NP(C)(=O)Oc2ccc(F)cc2)cc1 (stereo not drawn) | inactive: 97%
CCN(CC)CCCOC(=O)C(O)(c1ccccc1)C1CCCCC1 (stereo not drawn) | inactive: 98%
CP(=O)(Nc1ccccc1)Oc1ccc(F)cc1 (stereo not drawn) | inactive: 100%
CP(=O)(Nc1ccccc1F)Oc1ccccc1 (stereo not drawn) | inactive: 95%
O=C(OCCN1CCN(CCOCc2ccccc2)CC1)C(O)(c1ccccc1)c1ccccc1 | inactive: 102%
